The text below walks through data of patent US9315514B2, “1,3-dioxanomorphides and 1,3-dioxanocodides” (dated 2016).

Protein sequences, listed by entry. Tags and fused reporters are not part of them.
UniProt P41145, whole entry: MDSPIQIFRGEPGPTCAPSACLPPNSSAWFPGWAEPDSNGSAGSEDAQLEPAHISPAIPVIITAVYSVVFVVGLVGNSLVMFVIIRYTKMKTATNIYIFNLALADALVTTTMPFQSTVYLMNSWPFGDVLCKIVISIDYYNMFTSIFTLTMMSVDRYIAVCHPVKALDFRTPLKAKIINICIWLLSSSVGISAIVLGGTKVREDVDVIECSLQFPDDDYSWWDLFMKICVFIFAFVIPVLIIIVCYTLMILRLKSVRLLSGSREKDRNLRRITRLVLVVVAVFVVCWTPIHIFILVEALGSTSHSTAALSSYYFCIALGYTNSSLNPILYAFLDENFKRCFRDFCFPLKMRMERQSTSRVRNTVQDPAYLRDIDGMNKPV
UniProt P35372, whole entry: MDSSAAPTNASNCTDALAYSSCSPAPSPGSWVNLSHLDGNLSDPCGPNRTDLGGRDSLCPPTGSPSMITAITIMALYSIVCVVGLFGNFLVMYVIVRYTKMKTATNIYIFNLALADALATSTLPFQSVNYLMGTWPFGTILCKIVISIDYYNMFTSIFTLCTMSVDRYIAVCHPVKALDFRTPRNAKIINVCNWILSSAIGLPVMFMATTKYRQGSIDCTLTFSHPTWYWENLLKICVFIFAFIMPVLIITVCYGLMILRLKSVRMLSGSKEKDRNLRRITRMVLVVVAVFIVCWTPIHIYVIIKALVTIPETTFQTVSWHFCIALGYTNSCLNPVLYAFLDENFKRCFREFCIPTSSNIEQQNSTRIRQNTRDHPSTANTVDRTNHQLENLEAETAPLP
UniProt P41146, whole entry: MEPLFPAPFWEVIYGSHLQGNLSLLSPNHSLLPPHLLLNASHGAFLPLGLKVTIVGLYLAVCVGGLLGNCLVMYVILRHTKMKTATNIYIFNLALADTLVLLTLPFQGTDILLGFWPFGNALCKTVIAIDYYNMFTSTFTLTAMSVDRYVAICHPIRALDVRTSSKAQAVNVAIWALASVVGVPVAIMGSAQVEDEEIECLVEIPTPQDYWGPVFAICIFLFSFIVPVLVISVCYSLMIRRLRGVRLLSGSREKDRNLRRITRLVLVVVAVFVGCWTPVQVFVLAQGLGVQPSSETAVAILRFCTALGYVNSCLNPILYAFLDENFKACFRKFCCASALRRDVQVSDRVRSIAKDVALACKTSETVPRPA

Bounds are passed on as bounds.

The target in one test is κ-opioid receptor (Homo sapiens (Human), UniProt P41145). Nature of the test: κ-opioid receptor [35S]GTPγS functional assay. The settings on record: for κ-opioid receptor Emax: maximal effect relative to U69,593; for EC50: read-out: κ-opioid receptor EC50, κ GTP EC50. A general note: GTPγS is a poorly hydrolysed GTP analogue; its binding reports G protein activation.
Another test addresses μ-opioid receptor (Homo sapiens (Human), UniProt P35372). The experiment in a line: μ-opioid receptor [35S]GTPγS functional assay. The settings on record: for μ-opioid receptor Emax: maximal effect relative to DAMGO; for EC50: read-out: μ-opioid receptor EC50, μ GTP EC50.
In another test the target is δ-opioid receptor (Homo sapiens (Human), UniProt P41143). Nature of the test: δ-opioid receptor activity in PerkinElmer ligand binding and cellular assays.
Another test deals with ORL-1 receptor (Homo sapiens (Human), UniProt P41146). Nature of the test: ORL-1 receptor activity in PerkinElmer ligand binding and cellular assays.

What is called EC50 is the concentration at which the effect is half-maximal.

For the compound `CCCC1O[C@]23CC[C@@]4(C[C@@H]2[C@@](C)(C(C)(C)C)O1)[C@H]1Cc2ccc(O)c5c2[C@@]4(CCN1CC1CC1)[C@H]3O5` (some centres unmarked), on κ-opioid receptor, the “κ-opioid receptor Emax” value came to 13.67% and the EC50 came out at 9.48 nM. For the same compound, at μ-opioid receptor, the “μ-opioid receptor Emax” value is recorded as 50.67% and the EC50 was 3.54 nM.

Consider `CCC1O[C@]23CC[C@@]4(C[C@@H]2[C@@](C)(C(C)(C)C)O1)[C@H]1Cc2ccc(O)c5c2[C@@]4(CCN1CC1CC1)[C@H]3O5` (some centres unmarked), for which, at κ-opioid receptor, the “κ-opioid receptor Emax” value is given as 16.00% and the EC50 came out at 4.42 nM. On μ-opioid receptor, the “μ-opioid receptor Emax” value stood at 59.67% and the EC50 is 1.4 nM.

`CN1CC[C@]23c4c5ccc(O)c4O[C@H]2[C@@]24CC[C@@]3(C[C@@H]2[C@@](C)(Cc2ccccc2)OCO4)[C@H]1C5`: the δ-opioid receptor activity result at δ-opioid receptor is “shown δ-opioid receptor activity”. For the same compound, the ORL-1 receptor activity result on ORL-1 receptor is reported as “shown ORL-1 receptor activity”.

For the compound `CC(C)(C)[C@@]1(C)OC(c2ccccc2)O[C@]23CC[C@@]4(C[C@@H]21)[C@H]1Cc2ccc(O)c5c2[C@@]4(CCN1CC1CC1)[C@H]3O5` (some centres unmarked), on κ-opioid receptor, the “κ-opioid receptor Emax” value turned out to be 0.33% and the EC50 was above 20 nM. At μ-opioid receptor, the “μ-opioid receptor Emax” value was 33.33% and the 50% effective concentration (EC50) amounted to 5.35 nM.

For the compound `COc1ccc2c3c1O[C@H]1[C@@]45CCC6(C[C@@H]4[C@@](C)(C(C)(C)C)OCO5)[C@@H](C2)N(C)CC[C@]316`, the δ-opioid receptor activity result on δ-opioid receptor was “shown δ-opioid receptor activity”. The ORL-1 receptor activity entry at ORL-1 receptor is “shown ORL-1 receptor activity”.

With `CC(C)(C)[C@@]1(C)OCO[C@]23C=C[C@@]4(C[C@@H]21)[C@H]1Cc2ccc(O)c5c2[C@@]4(CCN1CC1CC1)[C@H]3O5`, at δ-opioid receptor, the δ-opioid receptor activity entry is recorded as “shown δ-opioid receptor activity”. In addition, on κ-opioid receptor, the “κ-opioid receptor Emax” value is reported as 25% and the EC50 was 7.76 nM. In addition, on μ-opioid receptor, the “μ-opioid receptor Emax” value was 46% and the EC50 stood at 1.56 nM.

Turning to `CC(C)(C)[C@@]1(C)OCO[C@]23CC[C@@]4(C[C@@H]21)[C@H]1Cc2ccc(O)c5c2[C@@]4(CCN1CC1CC1)[C@H]3O5`, on δ-opioid receptor, the δ-opioid receptor activity result is listed as “shown δ-opioid receptor activity”. Further, on κ-opioid receptor, the “κ-opioid receptor Emax” value stood at 16.67% and the EC50 came to 22.7 nM. Besides, on μ-opioid receptor, the “μ-opioid receptor Emax” value amounted to 46.67% and the EC50 turned out to be 0.86 nM.
